Assay results from ChEMBL document CHEMBL1641457, “The synthesis and biological evaluation of 1-C-alkyl-L-arabinoiminofuranoses, a novel class of α-glucosidase inhibitors” (Bioorg Med Chem Lett, 2011).

Chains of the proteins cited; added tags and fusions are not shown. Residues count along the entry.
UniProt P23739, 1014-1841 limits assumed: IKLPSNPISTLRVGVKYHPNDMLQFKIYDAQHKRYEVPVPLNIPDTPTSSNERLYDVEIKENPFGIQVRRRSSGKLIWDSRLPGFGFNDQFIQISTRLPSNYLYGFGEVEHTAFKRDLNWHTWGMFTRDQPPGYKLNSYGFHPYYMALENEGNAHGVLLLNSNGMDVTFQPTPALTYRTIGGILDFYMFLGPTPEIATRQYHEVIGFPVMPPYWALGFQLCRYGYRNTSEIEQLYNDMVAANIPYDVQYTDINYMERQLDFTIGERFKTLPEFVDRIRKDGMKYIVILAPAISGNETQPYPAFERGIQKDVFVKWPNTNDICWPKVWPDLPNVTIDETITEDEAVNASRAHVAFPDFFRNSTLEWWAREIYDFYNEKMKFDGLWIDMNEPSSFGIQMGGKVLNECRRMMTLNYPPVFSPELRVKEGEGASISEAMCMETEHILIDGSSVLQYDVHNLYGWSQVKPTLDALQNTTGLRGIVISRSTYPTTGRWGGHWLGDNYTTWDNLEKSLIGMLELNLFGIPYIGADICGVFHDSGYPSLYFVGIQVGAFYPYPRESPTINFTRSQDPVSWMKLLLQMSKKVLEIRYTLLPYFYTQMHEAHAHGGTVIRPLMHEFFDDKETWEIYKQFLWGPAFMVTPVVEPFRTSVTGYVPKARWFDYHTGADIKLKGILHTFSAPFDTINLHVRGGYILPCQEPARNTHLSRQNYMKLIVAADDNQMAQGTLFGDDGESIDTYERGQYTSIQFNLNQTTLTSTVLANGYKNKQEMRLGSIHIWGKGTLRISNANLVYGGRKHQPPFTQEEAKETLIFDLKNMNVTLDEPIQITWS
UniProt P23739, 1-1013 limits assumed: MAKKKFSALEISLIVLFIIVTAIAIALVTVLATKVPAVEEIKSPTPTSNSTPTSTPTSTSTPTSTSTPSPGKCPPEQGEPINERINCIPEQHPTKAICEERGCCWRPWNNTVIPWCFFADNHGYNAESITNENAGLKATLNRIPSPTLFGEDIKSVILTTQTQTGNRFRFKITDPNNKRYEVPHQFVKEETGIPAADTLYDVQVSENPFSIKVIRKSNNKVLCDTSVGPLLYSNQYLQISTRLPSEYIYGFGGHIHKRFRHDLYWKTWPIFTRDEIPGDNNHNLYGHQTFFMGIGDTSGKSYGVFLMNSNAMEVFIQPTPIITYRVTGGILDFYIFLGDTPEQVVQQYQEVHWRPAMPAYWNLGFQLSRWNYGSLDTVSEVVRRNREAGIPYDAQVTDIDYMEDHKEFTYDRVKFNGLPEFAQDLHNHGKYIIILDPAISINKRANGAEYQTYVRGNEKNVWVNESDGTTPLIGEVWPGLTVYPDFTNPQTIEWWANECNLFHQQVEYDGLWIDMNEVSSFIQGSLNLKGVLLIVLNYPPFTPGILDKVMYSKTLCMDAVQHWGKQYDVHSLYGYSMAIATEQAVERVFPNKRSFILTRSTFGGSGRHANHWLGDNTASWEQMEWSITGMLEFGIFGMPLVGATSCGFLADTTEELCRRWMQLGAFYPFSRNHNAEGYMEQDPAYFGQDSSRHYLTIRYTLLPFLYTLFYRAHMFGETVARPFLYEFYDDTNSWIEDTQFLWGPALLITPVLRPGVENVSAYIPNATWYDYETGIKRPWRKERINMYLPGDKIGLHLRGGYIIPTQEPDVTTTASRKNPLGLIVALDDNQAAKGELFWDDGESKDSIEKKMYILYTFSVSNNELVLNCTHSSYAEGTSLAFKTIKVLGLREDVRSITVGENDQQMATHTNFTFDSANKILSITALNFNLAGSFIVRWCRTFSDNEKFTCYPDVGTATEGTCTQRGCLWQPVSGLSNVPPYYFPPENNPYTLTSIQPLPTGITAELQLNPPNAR

Target: Sucrase-isomaltase, intestinal (Rattus norvegicus, UniProt P23739)
Assay: Inhibition of Wistar rat small intestine sucrase after 30 mins

An IC50 of 2900 nM was found for `C[C@H]1O[C@H](O[C@H]2[C@H](O)[C@@H](O)[C@@H](O[C@H]3[C@H](O)[C@@H](O)C(O)O[C@@H]3CO)O[C@@H]2CO)[C@H](O)[C@@H](O)[C@@H]1N[C@H]1C=C(CO)[C@@H](O)[C@H](O)[C@H]1O` (stereo partly specified) [ACARBOSE] in this work.
